uPA surface inh = cell surface uPA generation inhibition | Potency, µM (top dose mostly 38.3 µM), usual class: inhibitors | cell surface uPA generation assay, qHTS | hit rate 0.31% among 330,000 | AID 540303; active = well fitted inhibition curve with a large enough effect; inconclusive = small, poorly fitted or top-dose-only effect; inactive = no such curve, though single readings can be large or run the other way; tested in mouse RAW 264.7 cells; also: nearly all actives have a fitted effect of over 55% in size
TDP1 cell noCPT = qHTS for Inhibitors of human tyrosyl-DNA phosphodiesterase 1 (TDP1): qHTS in cells in absence of CPT. DT40 Tdp1-/- hTDP1 cells, no CPT, ATP luminescence, 48 h. Potency, µM (top dose mostly 46.2 µM), actives largely listed as inhibitors. hit rate 15% among 420,000. AID 686978, 2013; also: nearly all actives have a fitted effect of over 55% in size
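Compound effects on proliferation are scored in DT40 Tdp1-/-;hTDP1 cells in the absence of CPT. ATP levels (CellTiter-Glo luminescence) are recorded after a ≥48 hr, 37 °C incubation.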
TDP1 cell CPT = DT40-hTDP1 cell growth loss with CPT | AID 686979 | hit rate 12% among 420,000 | chicken DT40 Tdp1-/-;hTDP1 cells + 20 nM CPT, ATP luminescence, 48 h | Potency, µM (top dose mostly 46.2 µM), most hits filed as inhibitors; also: nearly all actives have a fitted effect of over 55% in size
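Chicken DT40 Tdp1-/- cells complemented with human TDP1, 400 cells/well, exposed to compounds plus 20 nM camptothecin for at least 48 h at 37 C; viability read as ATP content by CellTiter-Glo luminescence.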
TDP1 inh = blocks human tyrosyl-DNA phosphodiesterase 1. Q9NUW8. recombinant TDP1, AlphaScreen DNA substrate cleavage. Potency, µM (doses to about 130 µM), actives largely listed as inhibitors. hit rate 0.28% among 350,000. AID 485290; also: nearly all actives have a fitted effect of over 40% in size
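Enzyme-compound mixtures sat 15 min at room temperature, followed by a 5 min reaction with 15 nM final substrate and 10 min with AlphaScreen beads. Recombinant human Tdp1 was used at 1 nM final.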
miR-21 FLuc = miR-21 reporter, rising signal | HeLa miR-21 FLuc reporter, luciferase, 48 h | Potency, µM (top dose mostly 38.3 µM) | 340,000 tested, under 10 active | AID 2288; active = well fitted rising curve with a large enough effect; inconclusive = small, poorly fitted or top-dose-only effect; inactive = no such curve, though single readings can be large or run the other way;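 further: miR-21 action dims this reporter so a rising signal means less miR-21 action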
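HeLa miR-21-FLuc reporter line, endogenous miR-21; 2000 cells/well in DMEM/10% FBS; compound titration up to ~40uM final, 48 h, 37 degree Celsius; luciferase detection reagent, 15 min lysis, CCD luminescence.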
Hits are given with their value; 0 = inactive; ? = inconclusive; - = no result given; [ ] = another dose, or the depositor's remark. Hits are enriched below; roughly 16% of the tested compounds scored in any of these assays. Unless noted, calls follow the shape of the dose curve; as a rule, active = well fitted curve in the direction sought with a large enough effect; inconclusive = small, poorly fitted or top-dose-only effect, or another doubt; inactive = no such curve, though single readings can be large; an effect the other way counts as inactive or inconclusive.

SMILES | uPA surface inh | TDP1 cell noCPT | TDP1 cell CPT | TDP1 inh | miR-21 FLuc
COc1ccc(C(=O)N2CCN(c3nc(C4CC4)nc4sc(C)c(C)c34)CC2)cc1 | 0 | 20.6µM | ? | 0[0.0935 µM] | 0
Cc1sc2nc(C3CC3)nc(N3CCN(S(=O)(=O)c4ccc(F)cc4)CC3)c2c1C | 0 | 11.2µM | ? | 0 | 0
COc1ccc(C(=O)N2CCN(c3ncccn3)CC2)cc1 | 0 | 0 | 0 | - | 0
CCCc1nc(N2CCN(S(=O)(=O)c3ccc(Cl)cc3)CC2)c2c(C)c(C)sc2n1 | 0 | ? | ? | 0 | 0
Cc1sc2nc(C3CC3)nc(N3CCN(C(=O)c4ccccc4F)CC3)c2c1C | 0 | ? | ? | - | 0
Cc1sc2nc(C3CC3)nc(N3CCN(C(=O)c4ccc(F)cc4)CC3)c2c1C | 0 | 23.1µM | ? | - | 0
Cc1sc2nc(C3CC3)nc(N3CCN(C(=O)c4ccc(Cl)cc4)CC3)c2c1C | 0 | 18.4µM | ? | 0 | 0
O=[N+]([O-])c1ccc(Cl)c(S(=O)(=O)N2CCCCCC2)c1 | 0 | ? | 0 | 0 | 0
COc1ccc(S(=O)(=O)NC2CCSc3ccccc32)cc1NC(C)=O (configuration not stated) | 0 | 0 | 0 | - | 0
COc1ccc(C2N(c3cc(Cl)ccc3OC)C(=O)C3CCCN32)cc1 (configuration not stated) | 0 | 0 | 0 | 0 | 0
CCOC(=O)C1=CC[C@@H](c2cc3ccc(OC)cc3n2C)N(S(=O)(=O)c2ccc(C)cc2)[C@H]1C(=O)OCC | 0 | ? | ? | 0 | -
CCOC(=O)C1=CC[C@@H](c2ccc(F)cc2)N(S(=O)(=O)c2ccc(C)cc2)[C@H]1c1ccccc1 | - | 23.1µM | 16.4µM | - | -
CCOC(=O)C1=CC[C@@H](c2ccccc2)N(S(=O)(=O)c2ccc(C)cc2)[C@H]1c1ccccc1C | - | 9.2µM | 13µM | - | -
CCOC(=O)C1=CC[C@@H](c2ccccc2)N(S(=O)(=O)c2ccc(C)cc2)[C@H]1C=C(C)C | - | 11.6µM | 16.4µM | - | -
CCOC(=O)C1=CC[C@@H](c2cc(OC)c(OC)c(OC)c2)N(S(=O)(=O)c2ccc(C)cc2)[C@H]1C(=O)OCC | 0 | ? | 25.9µM | 0 | -
CCCCOc1ccc(C(=O)NCC(=O)N(C)CC(=O)Nc2ccc(N3CCOCC3)cc2)cc1 | 0 | ? | ? | 0 | -
O=C(CSc1ccc2ccccc2c1)NC1CCCc2ccccc21 (configuration not stated) | 0 | ? | 0 | 0 | 0
O=S(=O)(NCc1ccco1)c1cccc2cccnc12 | 0 | 0 | 0 | 0 | 0
CN1C(c2ccc(F)cc2)=CS/C1=C(\C#N)c1nnc2n1-c1ccccc1SC2 | 0 | 0 | ? | 0 | 0
Cc1ccc([C@@H]2CC=C(C(=O)O)[C@H](c3ccccc3)N2S(=O)(=O)c2ccc(C)cc2)cc1 | 0 | 0 | 0 | 0 | -
CCOC(=O)C1=CC[C@@H](c2ccccc2)N(S(=O)(=O)c2ccc(C)cc2)[C@H]1c1ccc(C#N)cc1 | - | 9.2µM | 11.6µM | - | -
Cc1ccc(S(=O)(=O)N(C)c2ccc(OC(=O)c3cccs3)cc2)cc1C | 0 | ? | ? | 0 | -
Cn1cccc1C(=O)N1CCC2(CC1)CN(C(c1ccccc1)c1ccccc1)C2 | - | 11.6µM | ? | - | -
COCC(=O)N1CCC2(CC1)CCN(c1ccc(-c3ccccc3)cc1)CC2 | - | 0.206µM | ? | - | -
Cn1cccc1C(=O)N1CCC2(CCN(C(=O)Nc3cccc(F)c3)CC2)CC1 | - | ? | 23.1µM | - | -
SMILES | uPA surface inh | TDP1 cell noCPT | TDP1 cell CPT | TDP1 inh | miR-21 FLuc
O=C(c1ccncc1)N1CCC2(CC1)CN(C(c1ccccc1)c1ccccc1)C2 | - | 0 | 0 | - | -
Cn1cccc1C(=O)N1CCC2(CC1)CCN(c1ccc(-c3ccccc3)cc1)CC2 | - | 8.2µM | 9.2µM | - | -
COCC(=O)N1CCC2(CC1)CN(c1ccccc1)C2 | - | 0 | ? | - | -
COC(=O)C(CCSC)NC(=O)c1cn(-c2ccc(OC)cc2)c(=O)c2ccccc12 (configuration not stated) | 0 | 0 | 0 | - | 0
c1ccc(CN(Cc2ccccc2)C(c2ccnc3ccccc23)c2nnnn2-c2ccc3c(c2)OCCO3)cc1 (configuration not stated) | - | 23.1µM | ? | - | -
Cc1cccc(C)c1-n1nnnc1C(c1ccnc2ccccc12)N(CCC#N)Cc1ccccc1 (configuration not stated) | - | 10.3µM | 13µM | - | -
N#CCCN(Cc1ccccc1)C(c1ccnc2ccccc12)c1nnnn1-c1ccc2c(c1)OCCO2 (configuration not stated) | - | 0 | ? | - | -
CN(CCc1ccccc1)C(c1ccnc2ccccc12)c1nnnn1-c1ccc2c(c1)OCCO2 (configuration not stated) | - | 16.4µM | ? | - | -
COc1ccc(COC(=O)N/N=C2/C[C@@H](O)[C@@H](O)[C@@H]3[C@@H]4C(=O)N(C5CCCCC5)C(=O)[C@H]4CC[C@@H]23)cc1 | - | - | - | 0[21 µM] | -
O=C(CSc1n[nH]c(-c2ccco2)n1)N1c2ccccc2Sc2ccccc21 | 0 | ? | 0 | 0 | 0
CCOc1ccc(/C=C/c2nc(C#N)c(N3CCN(c4ccc(OC)cc4)CC3)o2)cc1 | - | 0 | 0 | 0 | 0
COc1ccc(/C=C/c2nc(C#N)c(N3CCCCCC3)o2)cc1OC | - | 8.2µM | 11.6µM | 0 | 0
CCN1CCN(c2oc(/C=C/c3ccc(OC)c(OC)c3)nc2C#N)CC1 | - | ? | 16.4µM | 0 | 0
COc1ccc(/C=C/C(=O)NC(=S)Nc2ccc(Br)cn2)cc1 | 0 | ? | ? | - | 0
N#Cc1c(N)n(Cc2ccccc2)c(=O)c2cc([N+](=O)[O-])ccc12 | 0 | 18.4µM | 16.4µM | - | 0
Cc1ccc(Cn2c(C)nc3ccc([N+](=O)[O-])cc3c2=O)cc1 | 0 | 20.6µM | 18.4µM | - | 0
Cc1nc2ccc([N+](=O)[O-])cc2c(=O)n1Cc1ccc([N+](=O)[O-])cc1 | 0 | ? | ? | - | 0
CC(C)(C)[C@@H]1CCC(=O)N(CC[C@H](Sc2ccccc2)c2ccccc2)CC1 | 0 | 20.6µM | 16.4µM | - | 0
CC(C)(C)[C@@H]1CCC(=O)N(CC[C@H](N=[N+]=[N-])c2ccccc2)CC1 | 0 | 18.4µM | ? | - | 0
CC(=O)Nc1ccc(S[C@@H](CCN2CC[C@H](C(C)(C)C)CCC2=O)c2ccccc2)cc1 | 0 | 18.4µM | 20.6µM | 0 | -
COCCNc1nnc(SCC(=O)N(C)c2c(N)n(Cc3ccccc3)c(=O)[nH]c2=O)s1 | 0 | 0 | 0 | - | -
COc1ccc(-c2nc(-c3ccncc3)no2)cc1 | 0 | 0 | 0 | - | 0
CCn1nc(-c2ccc(C)cc2)nc2c(=O)n(C)c(=O)nc1-2 | - | 2.24µM | 1.58µM | 0 | -
Cn1nc(-c2ccncc2)nc2c(=O)n(C)c(=O)nc1-2 | - | 0.355µM | 0.316µM | 0 | -
CCOC(=O)N1CCN(C(=O)c2ccc3c(=O)n(Cc4ccccc4OC)c(=S)[nH]c3c2)CC1 | - | 0 | 0 | 0 | 0
CCc1ccc(Nc2ccc(C(=O)O)cc2[N+](=O)[O-])cc1 | 0 | 0 | 0 | - | 0

Screening results: PubChem, National Center for Advancing Translational Sciences (NCATS)
